Experimental data taken from ChEMBL document CHEMBL4819008, “Design, synthesis, and evaluation of "dual-site"-binding diarylpyrimidines targeting both NNIBP and the NNRTI adjacent site of the HIV-1 reverse transcriptase” (Eur J Med Chem, 2021).

Biological target: Human immunodeficiency virus type 1 reverse transcriptase (Human immunodeficiency virus 1, UniProt Q72547)
Assay: Inhibition of HIV-1 reverse transcriptase assessed as reduction in biotin-dUTP incorporation into cDNA incubated for 1 hr with DIG-dUTP, biotin-dUTP and dTTP followed by transferring onto streptavidin-coated plate and measured after 1 hr by ELISA
Summary of the method: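 Recombinant WT HIV-1 RT was tested with a Roche colorimetric kit. Enzyme, reconstituted template, DIG-dUTP, biotin-dUTP and dTTP were incubated 1 h at 37 °C in incubation buffer with or without inhibitor. The mix was then held 1 h at 37 °C on a streptavidin-coated plate, then anti-DIG-POD 1 h at 37 °C, then ABTS at 25 °C, and read at OD405. IC50 is the concentration giving 50% inhibition of biotin-dUTP incorporation.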

Cc1cc(C#N)cc(C)c1Oc1nc(Nc2ccc(C#N)cc2)nc(N)c1Br [ETRAVIRINE]
IC50: 350 nM
